Results as given in ChEMBL document CHEMBL4706586, “Structure-activity relationships for a series of (Bis(4-fluorophenyl)methyl)sulfinylethyl-aminopiperidines and -piperidine amines at the dopamine transporter: Bioisosteric replacement of the piperazine improves metabolic stability” (Eur J Med Chem, 2020).

Legend:
[1] = organism: Rattus norvegicus; experiment: Selectivity ratio of Ki for SERT in Sprague-Dawley rat midbrain membranes to Ki for DAT in Sprague-Dawley rat striatum membranes
[2] = Selectivity ratio of Ki for sigma 1 receptor in guinea pig brain cortex membranes to Ki for DAT in Sprague-Dawley rat striatum membranes; assay type: cell membranes

SMILES | Ratio Ki [1] | Ratio Ki [2]
O=C(c1cc2ccccc2o1)N1CCC(NCCSC(c2ccc(F)cc2)c2ccc(F)cc2)CC1 | 0.84 | 2.64
O=C(c1ccc(F)cc1F)N1CCC(NCCSC(c2ccc(F)cc2)c2ccc(F)cc2)CC1 | 9.87 | 0.69
